Among the data in patent publication US20080287375A1, “Selective Glycosidase Inhibitors, Methods of Making Inhibitors, and Uses Thereof” (SIMON FRASER UNIVERSITY, priority 2005, published 2008) are Ki values, retold here.

This test has as its target human placental β-hexosaminidase. The test can be described thus: Inhibition of β-hexosaminidase, substrate MU-GlcNAc (5), Dixon plots.

Like-named read-outs stand apart in the source and are kept apart here.

Turning to `CC1=N[C@@H]2[C@@H](O)[C@H](O)[C@@H](CO)O[C@@H]2S1` [Compound 9a, 2′-methyl-α-D-glucopyrano-[2,1-d]-Δ2′-thiazoline, reference compound], the Ki amounted to 0.07 µM (read-out: KI, β-hexosaminidase, human lysosomal β-hexosaminidase) and 0.07 µM (read-out: β-Hexosaminidase KI, Table 2, substrate 5 at 0.64 mM, pH 4.25, Dixon plots).
